Compound activity deposited in PubChem by ICCB-Longwood Screening Facility, Harvard Medical School.
GIV Gai3 FP – inhibitors of GIV peptide binding to Galpha-i3, primary screen, biochemical, fluorescence polarization, FITC-GIV GBA peptide, rat Galphai3; 90 min; stronger effect = lower value; scaled: aluminum fluoride 0%, vehicle 100%; percent of control (FP), % (test concentration not listed); 0.42% of 210,000 active; AID 1224905, 2016;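 active = replicate mean at 85% of control or lower, very high polarization wells dropped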;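 also: wells of about 15 µL received 100 nL stock; the first replicate is given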
HCMV UL50-53 inh – disrupts HCMV UL50-UL53 complex binding. HTRF UL50-UL53 interaction, normalized percent inhibition. inhibition, % (no concentration beside the values). hit rate 0.15% among 190,000. AID 1918969; in the data active = inhibition above about 27%, passing the limit was not always enough
An asterisk follows results filed as active; . = no result. The list is not random: actives were taken first. Their share in the collection is about 0.46%.

1. COc1cc(OC)c(OC)cc1/C=C1\N=C(c2cccc(Br)c2)OC1=O
2. COc1ccc(Br)cc1/C=C1\N=C(c2cc(OC)c(OC)c(OC)c2)OC1=O
3. COc1ccc(Br)cc1/C=C1/N=C(c2ccc(OC)c(OC)c2)OC1=O
4. COc1cc(OC)c(OC)cc1/C=C1\N=C(c2cncc(Br)c2)OC1=O
5. O=C(O)CCCC(=O)N1CCN(S(=O)(=O)c2ccc(Br)s2)CC1
compound no.,1,2,3,4,5
GIV Gai3 FP,172,108,-12*,-8.4*,106
HCMV UL50-53 inh,.,.,.,.,11

6. COc1ccc(NC(=O)c2cc(-c3ccco3)nc3ccccc23)cc1Cl
7. NNc1ccc2c(Cl)cc(Cl)c(O)c2n1
8. CCCN1C(=O)/C(=C/c2cc(Br)c(O)c(OCC)c2)NC1=S
9. CCCN1C(=O)/C(=C/c2ccc(CC)cc2)NC1=S
10. CSc1nc(Nc2cccc(C)c2)c(C#N)c(-c2ccccc2)n1
compound no.,6,7,8,9,10
GIV Gai3 FP,.,104,-83*,104,102
HCMV UL50-53 inh,2,.,-65,.,48*

11. COc1ccc(Nc2nc(SC)nc(-c3ccccc3)c2C#N)cc1OC
12. O=C(O)c1cccc(-c2ccc(/C=C3\Sc4ccccc4C3=O)o2)c1
13. CCOC(=O)c1ccc(-c2ccc(/C=C3\Sc4ccccc4C3=O)o2)cc1
14. COC(=O)c1cccc(-c2ccc(/C=C3\Sc4ccccc4C3=O)o2)c1
15. O=C(O)c1ccc(-c2ccc(/C=C3\Sc4ccccc4C3=O)o2)cc1
compound no.,11,12,13,14,15
GIV Gai3 FP,99,-73*,116,163,-10*
HCMV UL50-53 inh,-13,-86,-18,5,.

16. O=C1CNC(=O)C2(c3ccccc3)CCCN12 (stereo not drawn)
17. CSC1=NC(C)(C)CCC12C=CC(=O)C=C2
18. CCCC1C(C#N)=C(N)SC(N)=C1C#N
19. CC1C(C#N)=C(N)SC(N)=C1C#N
20. CNC(=O)Nc1ccc2snnc2c1
compound no.,16,17,18,19,20
GIV Gai3 FP,106,101,.,-20*,102
HCMV UL50-53 inh,-5,-1,-11,30,.

21. O=C(Nc1ccc2snnc2c1)NC1CC1
22. CCCN(C(=O)COc1ccccc1F)c1c(N)n(Cc2ccccc2)c(=O)[nH]c1=O
23. CCC(C)NS(=O)(=O)c1ccc2c(c1)N(C(C)=O)CCS2 (stereo not drawn)
24. COCCOC(=O)c1cc2c(C)nn(-c3cccc(F)c3)c2s1
25. CN(C)c1ccc(-c2nc(-c3cccc(I)c3)cc(=O)o2)cc1
compound no.,21,22,23,24,25
GIV Gai3 FP,104,.,109,109,-18*
HCMV UL50-53 inh,48*,-6,-12,.,.

26. O=c1cc(-c2ccccc2)nc(-c2ccccc2)o1
27. COC(=O)c1ccc(=O)c2nc3/c(=C/O)c(O)cc(=O)c3[nH]c12
28. COC(=O)c1ccc(N)cc1O
29. O=C(NCC1CCN(Cc2cccc(Cl)c2)CC1)Nc1ccc2c(c1)OCCO2
30. CC1(C)C(=O)NC2=C1C(=O)C(=O)c1ccccc12
compound no.,26,27,28,29,30
GIV Gai3 FP,101,100,100,100,.
HCMV UL50-53 inh,-5,50*,-20,-18,107*

31. O=C1C2=C(NC3=C(C(=O)c4ccccc43)C23C(=O)Nc2ccccc23)c2ccccc21
32. COc1ccc(NC(=O)c2ccco2)cc1OC
33. O=C(O)c1cccc(N2C(=O)c3ccc4c5c(ccc(c35)C2=O)C(=O)N(c2cccc(C(=O)O)c2)C4=O)c1
34. O=C(O)c1cc(NC(=O)c2cccc(N3C(=O)c4cccc5c([N+](=O)[O-])ccc(c45)C3=O)c2)cc(C(=O)O)c1
35. CC(OC(=O)c1ccc(O)cc1)C(=O)Nc1cc(Cl)cc(Cl)c1 (stereo not drawn)
compound no.,31,32,33,34,35
GIV Gai3 FP,107,.,105,85*,.
HCMV UL50-53 inh,-10,-12,-43,-20,-18

Record cards (already shown).
COc1ccc(NC(=O)c2ccco2)cc1OC reads GIV Gai3 FP: .; HCMV UL50-53 inh: -12
O=C(O)c1cc(NC(=O)c2cccc(N3C(=O)c4cccc5c([N+](=O)[O-])ccc(c45)C3=O)c2)cc(C(=O)O)c1 reads GIV Gai3 FP: 85*; HCMV UL50-53 inh: -20

(next part)
36. Oc1c(C=NC2CCCCC2)[nH]c2ccc(Br)c(Cl)c12
37. Oc1c(C=NCc2ccccc2)[nH]c2ccc(Br)c(Cl)c12
38. CCn1c(SCC(=O)Nc2ccccc2)nnc1-c1c[nH]c2ccccc12
39. CC(=O)OCc1c(C)ccc(C2C(C#N)=C(N)OC(N)=C2C#N)c1C
40. CCOC(=O)C1=C(C)OC(N)=C(C#N)C1c1ccc(O)cc1 (stereo not drawn)
compound no.,36,37,38,39,40
GIV Gai3 FP,-64*,225,.,-1.1*,101
HCMV UL50-53 inh,.,.,-15,.,-47

41. CCc1ccc(NC(=O)CC(C(=O)O)N2CCCCC2)cc1 (stereo not drawn)
42. Cc1ccccc1-n1nc2c(c1NC(=O)c1ccc(S(=O)(=O)N3CCCCC3)cc1)CSC2
43. COc1ccc(-n2nc3c(c2NC(=O)c2ccc(S(=O)(=O)N4CCCCC4)cc2)CSC3)cc1
44. Cc1ccc(-n2nc3c(c2NC(=O)c2ccc(S(=O)(=O)N4CCCCC4)cc2)CSC3)c(C)c1
45. Cc1ccc(-n2nc3c(c2NC(=O)c2ccc(S(=O)(=O)N4CCOCC4)cc2)CSC3)c(C)c1
compound no.,41,42,43,44,45
GIV Gai3 FP,102,104,102,103,109
HCMV UL50-53 inh,-2,40*,32,6,90*

46. Cc1cccc(-n2nc3c(c2NC(=O)c2ccc(S(=O)(=O)N4CCCCC4)cc2)CSC3)c1C
47. COc1ccc(-n2nc3c(c2NC(=O)c2ccc(S(=O)(=O)N4CCCC4)cc2)CSC3)cc1
48. Cc1cc(C(=O)COC(=O)/C=C/c2ccc(S(=O)(=O)N3CCOCC3)cc2)c(C)n1C
49. COC(=O)CN(C#N)c1nc(NCc2ccccc2)nc(OC)n1
50. COC(=O)CN(C#N)c1nc(C)cc(C)n1
compound no.,46,47,48,49,50
GIV Gai3 FP,109,104,.,110,98
HCMV UL50-53 inh,.,58*,-52,54*,1

51. CC(C)c1ccc(S(=O)(=O)Nc2cc(C(=O)O)cnc2N(C)C)cc1
52. CC(C)Cc1ccc(S(=O)(=O)Nc2cc(C(=O)O)cnc2N(C)C)cc1
53. O=C1S/C(=C\C=C\c2ccco2)C(=O)N1c1ccccc1
54. O=C(O)C(Cc1ccccc1)N1C(=O)/C(=C/C=C/c2ccco2)SC1=S (stereo not drawn)
55. CC(C)CNS(=O)(=O)c1ccc(-c2nnc(C3CC3)o2)o1
compound no.,51,52,53,54,55
GIV Gai3 FP,75*,101,115,121,102
HCMV UL50-53 inh,-24,-20,-23,70*,.

56. O=c1oc2ccccc2cc1-c1nc(-c2cccs2)cs1
57. COc1cccc2cc(-c3nnc(NC4CCCCC4)s3)c(=O)oc12
58. O=c1oc2cc(O)ccc2cc1-c1nc(-c2ccc3ccccc3c2)cs1
59. O=c1oc2ccc3ccccc3c2cc1-c1nc(-c2cccs2)cs1
60. Cc1ccc(-c2csc(-c3cc4ccccc4oc3=O)n2)cc1C
compound no.,56,57,58,59,60
GIV Gai3 FP,11*,113,-29*,116,111
HCMV UL50-53 inh,.,.,.,.,.

61. O=c1oc2cc(O)ccc2cc1-c1nnc(NC2CCCCC2)s1
62. Cc1ccc(/C=C/C(=O)NCC2CCN(C(=O)/C=C/c3ccc(C)o3)CC2)o1
63. COC(=O)c1ccc(Cl)cc1NC(=O)N1Cc2cccn2-c2ccccc21
64. O=C(C1=C(O)C(=O)N(c2ccccn2)C1c1ccccc1)c1cccs1 (stereo not drawn)
65. Cc1nnc(N2C(=O)C(O)=C(C(=O)c3cccs3)C2c2ccccc2F)s1 (stereo not drawn)
compound no.,61,62,63,64,65
GIV Gai3 FP,-31*,112,101,.,-9.4*
HCMV UL50-53 inh,.,-38,-4,-34,-61

66. COc1ccccc1C(=O)On1c(C)nc2ccccc2c1=O
67. COc1cc(OC)cc(-c2nc3ccccc3c(=O)n2OC(=O)c2cc(Cl)ccc2OC)c1
68. CN(C)CC(C)(C)Cn1c(=S)[nH]c2ccccc2c1=O
69. O=C(CSc1nc2c(c(=O)[nH]1)CCC2)N1CCCCCC1
70. Cc1cccc(-c2nc3ccccc3c3nnc(SCC(=O)N4CCCC4)n23)c1
compound no.,66,67,68,69,70
GIV Gai3 FP,98,103,.,99,103
HCMV UL50-53 inh,31*,11,-14,.,.

71. CCOC(=O)Cn1cc(/C=C2\C(=O)NC(=O)N(c3ccc(F)cc3)C2=O)c2ccccc21
72. CCOC(=O)Cn1cc(/C=C2\C(=O)NC(=O)N(c3ccc(Br)cc3)C2=O)c2ccccc21
73. Cc1c(N2C(=O)/C(=C/c3ccc(Br)cc3)SC2=S)c(=O)n(-c2ccccc2)n1C
74. CN(C)/C=C1\SC(=S)N(c2ccc(Br)cc2)C1=O
75. CN(C)C1=NC(C(F)(F)F)(C(F)(F)F)N=C(c2ccc(F)cc2)O1
compound no.,71,72,73,74,75
GIV Gai3 FP,-36*,112,104,-65*,102
HCMV UL50-53 inh,.,4,.,-104,.
